“And” between values parts separate entries of the source, which are not always exact repeats. Identical values can stand only once.
What was measured:
[1] = system: adult users of nicotine e-cigarettes; assay: claude (Example 3): vaping cessation from Week 9 to Week 12 (primary endpoint; odds ratios, relative risks, risk differences, exact tests)
Experimental: This Example describes a Phase 2 ORCA-V1 trial evaluated 160 adult e-cigarette users at 5 clinical trial locations in the United States. The trial completed enrollment in approximately 4 months. ORCA-V1 participants were randomized to receive 3 mg cytisinicline three times daily or placebo for 12 weeks in combination with standard cessation behavioral support. The dose and administration of cytisinicline in the ORCA-V1 study is identical to that used in the Phase 3 registrational trials for smoking cessation.
To evaluate cytisinicline as an aid to vaping cessation in adult users of nicotine e-cigarettes who intend to quit, a multi-center, double-blind, randomized, placebo-controlled study was conducted. Subjects were randomized 2:1 (100 cytisinicline: 50 Placebo) with 160 total randomized (FIG. 56). Subjects were stratified on whether they have smoked>100 cigarettes in their lifetime (yes vs no) (FIG. 57). Study size will have 95% power to detect a ~19% reduction in cotinine levels from baseline. Odds ratio (95% confidence interval) will exclude one when cytisinicline abstinence success is >18%; Example, a 6% placebo rate versus 18% outcome or odds ratio of 3.44 will be significant. Missing data may be assumed as reported vaping. Quit rates for 3 mg cytisinicline vs placebo results in odds ratio of 2.64 (P=0.036) (FIGS. 58A and B).
The first measurement consisted of biochemically verified continuous vaping abstinence during the last 4 weeks of treatment after 12 weeks of cytisinicline treatment vs placebo. Vaping abstinence during weeks 9-12 was verified with no reported vaping with weekly saliva cotinine levels<10 ng/mL. Primary Analysis with prospective stratification factor odds ratio was 2.64 (p=0.035), primary analysis with site as a stratification factor odds ratio was 3.03 (p=0.017), and primary analysis without any stratification factor odds ratio was 2.62 (p=0.035) (FIG. 59).
Odds ratio (OR): an OR estimate materially greater than one indicates benefit. The OR is the ratio of the odds of success in the Cytisinicline Arm divided by the offs of success in the Placebo Arm. The odds for arm is the ratio of the probability of success divided by the probability of non-success (FIGS. 58A and B).
Probability Difference: A probability difference estimate materially greater than zero indicates benefit. A probability difference is the probability of success in the Cytisinicline Arm minus the probability of success in the Placebo Arm.
In stratified 2×2 frequency table: the 2×2 structure is arm by the binary outcome. In 2×2 frequency table: arm by the binary outcome.
Primary Analysis: Analysis of primary response outcome using stratified 2×2 exact methodology: (<100 cigarettes in a lifetime or not) by arm by primary response. Variability results from a Cochran-Mantel-Haenszel analysis are shown (FIGS. 39 and 40). Effect size of interest is the estimate of the common odds ratio.
Primary Marginal and Secondary Outcomes: the primary outcome analysis (not stratified) and the secondary outcomes are analyzed using Fisher's exact test. A forest graph compares the primary outcome marginal and secondary outcome effects (FIG. 43)
Vaping cessation is defined for each subject as binary: success versus failure. Success is biochemically verified vaping abstinence documented at Weeks 9, 10, 11, and 12. At each visit, success will be defined for an individual subject as having reported vaping abstinence (no nicotine-containing vaping since the last clinic visit) and having saliva cotinine<10 ng/mL.

[2] = ORCA-3: psychiatric reported adverse events
Excerpt: Safety will be assessed by consideration of all adverse events reported by or elicited from the subject and abnormalities detected on hematology and serum chemistry tests. Worsening of other pre-existing medical conditions and any changes to concomitant medications/treatments will also be taken into account in this evaluation.
Adverse events (AEs) will be coded using the MedDRA dictionary. Coding will include system organ class (SOC) and preferred term (PT). All verbatim descriptions and coded terms will be listed for all AEs.

[3] = Week 9 to 12, Table 52 (S = 1), row total 77
[4] = Week 9 to 12, controlling for S = 0, row total 30
[5] = X by Y controlling for S, Week 9 to 12, vs placebo
[6] = additional statistics, X by Y, N = 160, Week 9 to 12, vs placebo

SMILES: O=c1cccc2n1C[C@@H]1CNC[C@H]2C1
- vaping cessation rate weeks 9-12 ([1]; 3 mg TID 12 weeks): 31.8%
- odds to have quit vaping during last 4 weeks of treatment (times higher vs placebo) ([1]; 3 mg TID 12 weeks, p=0.035): 2.6 times
- odds ratio, vaping cessation weeks 9-12 ([1]; 3 mg TID vs placebo, prospective stratification factor (smoked >100 cigarettes)): 2.64
- Vaping cessation from Week 9 to Week 12, % ([1]; 12 wks cytisinicline, All Randomized Set, N = 107): 31.8% and 31.78%
- Risk Difference, lower 95% confidence limit, Exact (Score) ([1]; Column 1 (Y = 0)): 0.0072
- Risk Difference, upper 95% confidence limit, Exact (Score) ([1]; Column 1 (Y = 0)): 0.2921
- Risk Difference, vaping cessation Week 9 to 12 ([1]; Column 1 (Y = 0), 3 mg TID vs placebo): Risk Difference = 0.1668
- Relative Risk ([1]; Week 9 to 12, S = 0, N = 45, column 1 = no cessation): 1.2632
- Relative Risk ([1]; Week 9 to 12, S = 0, N = 45, column 2 = cessation): 0.5455
- Relative Risk ([1]; Week 9 to 12, Table 52 (S = 1), N = 115, column 1 = no cessation): 1.2383
- Relative Risk ([1]; Week 9 to 12, Table 52 (S = 1), N = 115, column 2 = cessation): 0.4405
- No vaping cessation (X = 1, Y = 0), frequency [1, 3]: 54
- Vaping cessation (X = 1, Y = 1), row pct [1, 3]: 29.87 Pct
- No vaping cessation (X = 1, Y = 0), frequency ([1]; Week 9 to 12, all subjects, row total 107): 73
- No vaping cessation (X = 1, Y = 0), frequency [1, 4]: 19
- Vaping cessation (X = 1, Y = 1), row pct [1, 4]: 36.67 Pct
- Common Odds Ratio, Logit [1, 5]: 2.6304
- Common Odds Ratio, Mantel-Haenszel [1, 5]: 2.6375
- Common Odds Ratio, Logit [1, 6]: 2.6199
- Common Odds Ratio, Mantel-Haenszel [1, 6]: 2.6199
- Column 2 Risk Estimate, Row 2 ([1]; cessation, Week 9 to 12, Table 61): 0.3178
- Column 1 Risk Estimate, Row 2 ([1]; no cessation, Week 9 to 12, Table 61): 0.6822
- Column 1 Risk Difference (Row 1-Row 2) ([1]; no cessation, placebo minus cytisinicline, Week 9 to 12): 0.1668
- odds ratio, vaping cessation weeks 9-12 ([1]; site as stratification factor, p=0.017): 3.03
- Vaping cessation from Week 9 to Week 12, % ([1]; stratum >100 cigarettes in lifetime = No, % of N = 107): 10.3%
- Vaping cessation from Week 9 to Week 12, % ([1]; stratum >100 cigarettes in lifetime = Yes, % of N = 107): 21.5%
- Odds Ratio ([1]; vaping cessation Week 9 to 12, S = 0, N = 45, vs placebo): 2.3158
- Odds Ratio ([1]; vaping cessation Week 9 to 12, Table 52 (S = 1), N = 115, vs placebo): 2.8111
- Marginal Odds Ratio (95% CI) ([1]; vaping cessation Week 9 to 12, placebo as reference, MIDP CI): 2.62 (1.133, 6.491)
- Common Odds Ratio (95% CI) ([1]; vaping cessation Week 9 to 12, placebo as reference, stratified): 2.64 (1.062, 7.098)
- Marginal Difference in Proportions (95% CI) ([1]; vaping cessation Week 9 to 12, vs placebo): 0.17 (0.012, 0.284)
- odds ratio, vaping cessation weeks 9-12 ([1]; without any stratification factor, p=0.035): 2.62
- Abnormal dreams, % [2]: 7.5%
- Acute stress disorder, % [2]: 0.1%
- Adjustment disorder with depressed mood, % [2]: 0.1%
- Affect lability, % [2]: 0.1%
- Anhedonia, % [2]: 0.5%
- Anxiety, % [2]: 2.5%
- Bipolar disorder, % [2]: 0.1%
- Bruxism, % [2]: 0.1%
- Depressed mood, % [2]: 0.5%
- Depression, % [2]: 2.0%
- Initial insomnia, % [2]: 0.3%
- Insomnia, % [2]: 10.2%
- Irritability, % [2]: 1.7%
- Major depression, % [2]: 0.1%
- Mood swings, % [2]: 0.1%
- Nightmare, % [2]: 1.1%
- Panic attack, % [2]: 0.3%
- Paranoia, % [2]: 0.1%
- Post-traumatic stress disorder, % [2]: 0.1%
- Psychiatric disorders, % [2]: 22.9%
- Restlessness, % [2]: 0.3%
- Sleep disorder, % [2]: 0.5%
- Somnambulism, % [2]: 0.1%
- Stress, % [2]: 0.1%
- Suicidal ideation, % [2]: 0.1%
- Suicide attempt, % [2]: 0.3%
